Literature values, collected in article PMC6682141.
pKd: −log10 of the molar value.

Chains of the proteins cited; added tags and fusions are not shown.
UniProt P61073, whole entry: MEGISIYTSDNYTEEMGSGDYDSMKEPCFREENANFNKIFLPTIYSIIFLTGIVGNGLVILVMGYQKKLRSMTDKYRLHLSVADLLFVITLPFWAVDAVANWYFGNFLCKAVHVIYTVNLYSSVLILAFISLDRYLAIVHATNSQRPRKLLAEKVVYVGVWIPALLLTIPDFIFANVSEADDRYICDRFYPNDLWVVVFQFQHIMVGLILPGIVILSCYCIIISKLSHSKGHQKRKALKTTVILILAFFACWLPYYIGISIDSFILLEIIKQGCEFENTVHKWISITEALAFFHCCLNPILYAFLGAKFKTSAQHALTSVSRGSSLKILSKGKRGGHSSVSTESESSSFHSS

Target: CXCR4 (Homo sapiens) (UniProt P61073)

pKd: 6.81
Substance: ubiquitin (from UniProt P0CG47)
